From ChEMBL document CHEMBL1130720, “Design, synthesis, and conformational analysis of a novel series of HIV protease inhibitors” (Bioorg Med Chem Lett, 1998)

Target: Human immunodeficiency virus type 1 protease (Human immunodeficiency virus 1, UniProt Q72874)
Test: Binding affinity to HIV-1 protease was determined

CC(C)CN(C[C@@H](O)[C@H](Cc1ccccc1)NC(=O)O[C@H]1CCOC1)S(=O)(=O)c1ccc(N)cc1 [AMPRENAVIR]
Ki: < 0.1 nM
